Experiment: Measurement of molar absorption coefficients ε365, ε313 and ε365/ε313 in acetonitrile
Type: physicochemical
Conditions: molar absorption coefficient to light of 365 nm in acetonitrile

Row | Structure (SMILES) | ε365 of Compound β
1 | CCCCc1ncc(C)c2ccccc12 [Example 1-n-Butyl-4-methylisoquinoline, 1-n-Butyl-4-methylisoquinoline] | <10 (cm mol/L)^−1
2 | c1ccncc1 [Example B11, pyridine] | <10 (cm mol/L)^−1
3 | c1ccc2nc3ccccc3cc2c1 [Example B3, acridine] | 4900 (cm mol/L)^−1
4 | Nc1ccncc1 [Example 4-Aminopyridine, 4-Aminopyridine] | <100 (cm mol/L)^−1
5 | Clc1ccccn1 [Example 2-Chloropyridine, 2-Chloropyridine] | <10 (cm mol/L)^−1
6 | c1ccc2ncccc2c1 [Example B2, quinoline] | <10 (cm mol/L)^−1
7 | COc1cc(C)nc2ccccc12 [Example 2-Methyl-4-methoxyquinoline, 2-Methyl-4-methoxyquinoline] | <10 (cm mol/L)^−1
8 | Cc1nccc2ccccc12 [Example B6, 1-Me-isoquinoline] | <10 (cm mol/L)^−1
9 | CCCCc1nccc2ccccc12 [Example 1-n-Butylisoquinoline, 1-n-Butylisoquinoline] | <10 (cm mol/L)^−1
10 | Cc1cc(C)c2ccccc2n1 [Example B12, 2,4-dimethylquinoline] | <10 (cm mol/L)^−1
11 | Cc1cc(C)c2c(C)cc(C)nc2c1 [2,4,5,7-Tetramethylquinoline] | <10 (cm mol/L)^−1
12 | c1ccc(-c2c3ccccc3nc3ccccc23)cc1 [Example 9-Phenylacridine, 9-Phenylacridine] | >10000 (cm mol/L)^−1
13 | c1ccc2cnccc2c1 [Example B1, isoquinoline] | <10 (cm mol/L)^−1
14 | Cc1c2ccccc2nc2ccccc12 [Example 9-Methylacridine, 9-Methylacridine] | 6300 (cm mol/L)^−1

From patent US20230059487A1, “PHOTOSENSITIVE MATERIAL, TRANSFER FILM, MANUFACTURING METHOD OF CIRCUIT WIRING, MANUFACTURING METHOD OF TOUCH PANEL, AND PATTERN FORMING METHOD” (FUJIFILM Corporation, priority 2020, published 2023)
